The assay concerns the target EZH2 (Homo sapiens). Kind of assay: Inhibition of human N-terminal His-tagged EZH2/flag-tagged EED/SUZ12/AEBP2/RBAP48 A677G mutant (2 to end residues) expressed in baculovirus infected Sf9 insect cells using histone H3 (1 to 50 residues)-GGK as substrate after 2 hrs in presence of SAM by fluorescence assay.

For the molecule `CCc1c(N(CC)C2CCOCC2)cc2oc(C3CCN(C(C)C)CC3)cc2c1C(=O)NCc1c(C)cc(C)[nH]c1=O`, the IC50 worked out at 4 nM.

For orientation: IC50 means the point on the concentration scale where inhibition reaches its midpoint.

Values taken from ChEMBL document CHEMBL4138300 (ACS Med Chem Lett, 2018).
